# Reference: PubChem BioAssay AID602229 (The Scripps Research Institute Molecular Screening Center, 2012)
# Amino acid sequences for entries named in this document (tags omitted). A change or cut given only in a name is not applied to a line headed by its entry.
# UniProt Q9Y5X4: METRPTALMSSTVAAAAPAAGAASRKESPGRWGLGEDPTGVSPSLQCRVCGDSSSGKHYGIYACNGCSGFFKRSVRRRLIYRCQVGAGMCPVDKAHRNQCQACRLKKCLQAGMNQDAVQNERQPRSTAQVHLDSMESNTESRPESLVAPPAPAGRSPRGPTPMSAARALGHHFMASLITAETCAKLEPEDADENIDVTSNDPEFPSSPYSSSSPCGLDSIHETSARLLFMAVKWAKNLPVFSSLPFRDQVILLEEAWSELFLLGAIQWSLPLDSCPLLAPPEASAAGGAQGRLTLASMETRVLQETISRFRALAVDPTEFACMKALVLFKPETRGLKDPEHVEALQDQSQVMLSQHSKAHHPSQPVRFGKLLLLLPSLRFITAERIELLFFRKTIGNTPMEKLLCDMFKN
# Only a part is listed here, and it is no random draw. Calls of active or inactive are those of the source.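 The calls were made as follows: active = inhibition above the mean of all tested compounds plus 3 SD (cut at about 70% in these data); inactive = the rest.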
# Biological target: Photoreceptor-specific nuclear receptor (Homo sapiens) (UniProt Q9Y5X4)
# Assay: NCOR release from NR2E3 in cells – cell-based, luminescence, CHO-S, Gal4-NCOR/VP16-NR2E3, primary screen (AID 602229);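 also: 0% = DMSO with NR2E3 transfected cells and 100% = cells lacking NR2E3 construct; higher means lower luciferase signal from less NR2E3 corepressor binding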
# Settings: CHO-S Gal4-NCOR/VP16-NR2E3 two-hybrid, luciferase; at 3.98 µM; stronger effect = higher value
row,SMILES,inhibition of corepressor binding
1,Nc1ccccc1[As](=O)(O)c1ccccc1,inactive: 4.33%
2,O=C(O)COc1ccc([As](=O)(O)O)cc1[N+](=O)[O-],inactive: 2.94%
3,O=P(Nc1nccs1)(Oc1ccccc1)Oc1ccccc1,inactive: 0.78%
4,O=P(Nc1nccs1)(c1ccccc1)c1nc2ccccc2s1 (centres undefined),inactive: 31%
5,CCOP1(=S)c2c(C)nn(CCC#N)c2N=C(c2ccccc2F)N1C (centres undefined),inactive: -18.5%
6,CS(=O)(=O)c1cc([N+](=O)[O-])c2no[n+]([O-])c2c1,inactive: -0.32%
7,CN(C(=O)Cc1ccccc1)[C@@H]1CC[C@]2(CCCO2)C[C@H]1N1CCCC1,inactive: -43.6%
8,CCOP1(=S)c2c(C)nn(CCC#N)c2N=C(c2ccc(F)cc2)N1C (centres undefined),inactive: 2.56%
9,N#CCCN(C(=O)COC(=O)C(O)(c1ccccc1)c1ccccc1)c1ccc(F)cc1,inactive: 6.06%
10,CN(C(=O)Cc1ccc(Cl)c(Cl)c1)[C@H]1CC[C@@]2(CCCO2)C[C@@H]1N1CCCC1,inactive: -2.36%
11,O=[N+]([O-])c1ccc2c(c1)nnn2O,inactive: 23.8%
12,CN(C)C(=O)c1cc([N+](=O)[O-])cc2c1-c1c(cc([N+](=O)[O-])cc1[N+](=O)[O-])C2=O,inactive: 17.6%
13,NC(=O)Nc1ccc([As](=O)(O)O)cc1,inactive: -4.74%
14,Cc1cccc(OCC(=O)OC2CN3CCC2CC3)c1 (centres undefined),inactive: -15.5%
15,O=[As](O)(c1cccc(O)c1)c1cccc(O)c1,inactive: 13.8%
16,O=C(OC1CN2CCC1CC2)c1ccc(Cl)cc1 (centres undefined),inactive: -21%
17,CS(=O)(=O)c1ccc(Cl)c(NC(=O)COC(=O)C(O)(c2ccccc2)c2ccccc2)c1,inactive: -21.8%
18,O=[As](O)(O)c1cccnc1,inactive: -2.76%
19,COc1cc(C(=O)NCC2(N3CCOCC3)CCCCC2)cc(Cl)c1OC(C)C,inactive: -39.4%
20,CCOP(=O)(Nc1cccc2ccccc12)OCC,inactive: 1.46%
21,COc1cc(C2NCCC3(OCCO3)C2(C)C)cc(OC)c1OC (centres undefined),inactive: -1.56%
22,Nc1cccc2c([As](=O)(O)O)cccc12,inactive: 6.07%

row,SMILES,inhibition of corepressor binding
1,Cc1ccc(NCCc2c([N+](=O)[O-])cc([N+](=O)[O-])cc2[N+](=O)[O-])cc1,inactive: -3.76%
2,CCCOP(=S)(Nc1nc(N)cc(=O)[nH]1)OCCC,inactive: -9.22%
3,CC(C)(C)C(=O)NC(Sc1ncccn1)C(Cl)(Cl)Cl (centres undefined),inactive: -19.3%
4,O=P1(N(CCCl)CCCl)NCCC(C(F)(F)F)O1 (centres undefined),inactive: -20%
5,Clc1n[nH]nc1-c1nn[nH][15n]1,inactive: 23.8%
6,CCOP(=O)(NC(=NC(C)c1ccccc1)NC(C)c1ccccc1)OCC (centres undefined),inactive: -7.2%
7,O=P1(Nc2ccccn2)COc2ccccc2OC1,inactive: -0.13%
8,CCC1=CC2Cc3nc4ccc(Cl)cc4c(N)c3C(C1)C2 (centres undefined),inactive: 1.47%
9,CN(CCCl)Cc1cc(Cl)c(NC2=NCCN2)c(Cl)c1,inactive: 3.16%
10,CC(C)/C=N\N=C(\N)N[N+](=O)[O-],inactive: 0.73%
11,CN(C(=O)Cc1ccc(Cl)c(Cl)c1)[C@@H]1CCCC[C@H]1N1CCCC1,inactive: 18.3%
12,CC1(CBr)Cn2c(nc3ccccc3c2=O)S1 (centres undefined),inactive: -8.28%
13,COc1ccccc1CNC(=O)COC(=O)C(O)(c1ccccc1)c1ccccc1,inactive: 10%
14,CN(C)C1(CNC(=O)c2ccc(S(C)(=O)=O)cc2)CCCCC1,inactive: 7.95%
15,CCCC1OP(=O)(Nc2ccccc2)OCC1CC (centres undefined),inactive: 6.55%
16,O=C(/C=C/c1ccccc1)OC1CN2CCC1CC2 (centres undefined),inactive: 12.9%
17,CC1CCC(C(C)C)C(OP(=O)(Nc2ccccn2)c2ccccc2)C1 (centres undefined),inactive: 38.7%
18,Cc1ccc(C(=O)OC2CN3CCC2CC3)cc1 (centres undefined),inactive: -36.7%
19,Cc1nn(-c2ccccc2)c2c1P(=O)(N1CCOCC1)N(C)C(c1ccccc1)=N2 (centres undefined),inactive: -28%
20,Nc1cccc([As](=O)(O)c2ccccc2)c1,inactive: -18.8%
21,O=[As](O)(c1cccs1)c1cccs1,inactive: -15.1%
22,Cc1ccc(OCC(=O)OC2CN3CCC2CC3)cc1 (centres undefined),inactive: -26%

row,SMILES,inhibition of corepressor binding
1,O=P1(Nc2ccc(Br)cn2)COc2ccccc2OC1,inactive: -8.76%
2,NS(=O)(=O)c1cccc(NC(=O)COC(=O)C(O)(c2ccccc2)c2ccccc2)c1,inactive: -5.43%
3,Cc1ccc(S(=O)(=O)N(CCCN)CCCc2c(C)nc(N)[nH]c2=O)cc1,inactive: -0.29%
4,O=P1(Nc2ncccn2)COc2ccccc2OC1,inactive: -3.94%
5,COP(=O)(OC)N1CC1c1ccccc1 (centres undefined),inactive: 7.24%
6,Cc1cc(SC(NC(=O)c2ccccc2)C(Cl)(Cl)Cl)nc(C(C)C)n1 (centres undefined),inactive: -3.01%
7,CCCCOc1ccc(C(=O)NCC2(N3CCCCC3)CCCCC2)cc1OC,inactive: -9.13%
8,CCOC(=O)Nc1ccc([As](=O)(O)O)c(O)c1,inactive: -19.5%
9,O=C(O)C(O)c1ccc(N(CCCl)CCCl)cc1 (centres undefined),inactive: -0.32%
10,CC1CCNP(=O)(N(CCCl)CCCl)O1 (centres undefined),inactive: 10.8%
11,O=P(Nc1ccccn1)(c1cccc2ccccc12)c1cccc2ccccc12,inactive: -2.53%
12,Cc1cc(SC(NC=O)C(Cl)(Cl)Cl)ncn1 (centres undefined),inactive: 18.3%
13,O=[N+]([O-])c1ccc(Nc2ccc(Oc3ccc([N+](=O)[O-])cc3[N+](=O)[O-])cc2)c([N+](=O)[O-])c1,inactive: -14.8%
14,CCOC(=O)Nc1cccc([As](=O)(O)O)c1,inactive: 27.4%
15,O=C(O)C(=O)c1ccc(N(CCCl)CCCl)cc1,inactive: -26.7%
16,O=C(Nc1ccncc1[N+](=O)[O-])c1ccc([N+](=O)[O-])cc1[N+](=O)[O-],inactive: -32%
17,O=C(COc1ccccc1)OC1CN2CCC1CC2 (centres undefined),inactive: 0.04%
18,COC(=O)C1(C)COP(=O)(N2CCCC2)OC1 (centres undefined),inactive: -2.74%
19,COP1(=S)c2c(C)nn(CCC#N)c2N=C(c2ccc(F)cc2)N1C (centres undefined),inactive: -7.54%
20,CCC(C)N(CC(C)C)C(=S)SC(NC(C)=O)C(Cl)(Cl)Cl (centres undefined),inactive: 14.7%
